TbMetRS inhib: blocks T. brucei methionyl-tRNA synthetase activity; purified T. brucei MetRS, ATP depletion, Kinase-Glo luminescence; inhibition, % at 11.9 µM; actives 0.4% (n = 360,000);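 active = inhibition above a per-plate cutoff of the control wells' mean inhibition plus 3 SD, cut at about 5.5% in these data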;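 also: 0% = DMSO wells median and 100% = median of wells with control inhibitor compound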
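Dosing: 11.9 µM single point; system: parasite MetRS enzyme; technique: luminescence of leftover ATP; times: 15 min enzyme-compound preincubation, 2 h reaction, 10 min detection, 25 °C; replicates: each compound tested once; read-out basis: percent inhibition relative to median high and low control wells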
UUG fidelity: modulators of yeast start codon fidelity, primary screen, whole organism, S. cerevisiae, single point, plate reader | AID 602363, 2012 | S. cerevisiae UUG-firefly luciferase reporter, luminescence/redox ratio | activity score, % at 18.7 µM | hit rate 0.13% among 350,000;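 active = replicate mean at a twofold rise or more, about +100% in these data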;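 also: firefly luciferase made from a UUG start codon reports start codon fidelity; reporter light over untreated wells divided by growth signal over untreated wells; some hits fall short of that in this replicate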
Rce1 inh: inhibitors of yeast Ras-converting enzyme; actives 0.27% (n = 290,000); yeast membranes, quenched prenylated peptide cleavage fluorescence; calls only;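 active = fall in fluorescence gain of 50% or more versus controls, with final raw signal at or below 3038400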;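 also: plate controls were neutral control wells for no effect and wells lacking membranes for full effect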
DSG3 Ab inh: blocks pemphigus antibody binding to human desmoglein-3; DSG3-coupled beads, scFv-anti-DSG3-GFP binding, flow cytometry; hits give low values; binding (percent of control), % at 10 µM; actives 0.48% (n = 310,000);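 active = binding more than 3 SD below its plate's average and above zero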;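 also: hits lower antibody fragment binding to DSG3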
Arrestin-AP2 inh: inhibitors of human beta-arrestin and AP2 interaction; FITC-arrestin peptide / GST-AP2 beads, flow cytometry; AP2 beta2 appendage carries R879A mutation; inhibition, % at 10 µM; actives 0.31% (n = 340,000); AID 504490;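 active = inhibition above a set limit, near 3 SD of compounds lacking own fluorescence, cut at about 54% in these data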;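 also: plate controls were DMSO wells for no effect and 5 µM unlabelled arrestin peptide for full effect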
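system = GST-tagged AP2 beta2-adaptin appendage (R879A) on 4 µm glutathione beads | reagent = FITC-labelled arrestin peptide probe, 50 nM final | schedule = compound with beads 12 min RT, then probe 1 h RT | signal = HyperCyt-sampled flow cytometry, FL1 channel, ex 488/em 535 nm | read-out = percent response from loss of bead-bound FITC fluorescence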
Arr-AP2 CP1: inhibitors of human beta-arrestin and AP2 interaction; shares compounds with Arrestin-AP2 inh; GST-AP2 beads, FITC arrestin peptide binding, flow cytometry; GST-fused beta2-adaptin appendage, R879A mutant; actives 2% (n = 1,300); inhibition, % at 10 µM;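 active = inhibition above a set limit, roughly 3 SD of non-fluorescent compound noise, cut at about 38% in these data; inactive = inhibition at or below that limit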;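 also: loss of bead fluorescence from 50 nM FITC arrestin peptide bound to appendage; 0% = negative control wells and 100% = excess unlabelled arrestin peptide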
GST GSH counter: counter-screen for beta-arrestin AP2 inhibitors: GST-GSH bead binding. shares compounds with Arrestin-AP2 inh. GST-fluorescein binding to GSH beads, fluorescence. inhibition, % at 10 µM. actives 2% (n = 1,300);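 active = inhibition above 50%, about 3 SD of the inhibition seen with non-fluorescent compounds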;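 also: fluorescein maleimide labelled GST captured on 4 micron glutathione beads; higher means more loss of bead fluorescence from quenching or blocked binding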
An asterisk follows results filed as active; i = inactive; · = no result. A selection: hits, their analogues and other compounds. The true share with any hit is near 1.2%.

Abbreviations – A = TbMetRS inhib; B = UUG fidelity; C = Rce1 inh; D = DSG3 Ab inh; E = Arrestin-AP2 inh; F = Arr-AP2 CP1; G = GST GSH counter
> CN(C)C(=O)c1ccc(-c2ccc3c(c2)[C@@H]2[C@@H](CCN2S(=O)(=O)c2cn(C)cn2)[C@@H](CO)N3)cc1
  A = · | B = -10.0 | C = · | D = · | E = · | F = · | G = ·

> C[C@H](CO)N1C[C@H](C)[C@H](CN(C)C(=O)CC2CC2)Oc2cc(-c3cccnc3)ccc2S1(=O)=O
  A = · | B = 15.0 | C = · | D = · | E = · | F = · | G = ·

> O=C(Nc1ccc(S(=O)(=O)N2CCCCC2)cc1)c1ccc(=O)[nH]c1
  A = -0.3 | B = -16.1 | C = · | D = 111.9 | E = 22.9 | F = · | G = ·

> COc1ccc(NC(=O)c2ccc(=O)[nH]c2)cc1S(=O)(=O)N1CCOCC1
  A = -0.3 | B = -4.2 | C = · | D = 104.6 | E = 38.6 | F = 2.5 | G = -6.1

> COc1ccc(C(=O)Nc2ccc(C)c(S(=O)(=O)N3CCOCC3)c2)cc1S(=O)(=O)N1CCCC1
  A = -0.3 | B = -1.2 | C = · | D = 103.8 | E = 8.5 | F = · | G = ·

> Cc1ccc(NC(=O)c2ccc(=O)[nH]c2)cc1S(=O)(=O)N1CCCCC1
  A = -0.7 | B = · | C = i | D = 107.0 | E = 11.8 | F = -7.1 | G = -5.3

> CCOC(=O)Cn1c(=O)oc2cc(S(=O)(=O)Nc3cc(Cl)ccc3OC)ccc21
  A = -0.4 | B = -2.2 | C = i | D = 111.1 | E = -19.5 | F = · | G = ·

> CCOC(=O)Cn1c(=O)oc2cc(S(=O)(=O)Nc3cc(OCC)ccc3OCC)ccc21
  A = -0.9 | B = · | C = · | D = · | E = 56.9* | F = 1.7 | G = -6.5

> CCn1cc(C(=O)Nc2ccc(C)c([N+](=O)[O-])c2)cn1
  A = -1.6 | B = -5.7 | C = i | D = 94.1 | E = 57.1* | F = -2.0 | G = -4.5

> C[C@@H]1CN([C@@H](C)CO)C(=O)c2cc(C3=CCCC3)cnc2O[C@@H]1CN(C)C(=O)c1ccncc1
  A = · | B = -14.6 | C = · | D = · | E = · | F = · | G = ·

> CCN1C(c2ccccc2)=C(c2ccccc2)S/C1=C\C=C1/SC(=S)N(C)C1=O
  A = 0.3 | B = · | C = i | D = 117.4 | E = 75.2* | F = 18.3 | G = 43.5

> CCN1C(=O)/C(=C/C=C2/Sc3ccc4ccccc4c3N2CCO)SC1=S
  A = 0.4 | B = -16.3 | C = i | D = 107.3 | E = 4.0 | F = · | G = ·

> CCN1C(c2ccccc2)=C(c2ccccc2)S/C1=C/C=C1\SC(=S)N(C)C1=O
  A = 0.2 | B = -1.9 | C = · | D = · | E = 57.3* | F = -4.4 | G = 14.5

> O=C(C[C@H]1C[C@@H]2c3cc(NC(=O)c4cccnc4)ccc3O[C@@H]2[C@@H](CO)O1)NCc1ccc(Oc2ccccc2)cc1
  A = · | B = -4.0 | C = · | D = · | E = · | F = · | G = ·

> COc1ccc(CN2C(=O)c3ccccc3C2OC)cc1 (stereo not given)
  A = 1.0 | B = 5.8 | C = i | D = 115.1 | E = -4.1 | F = · | G = ·

Abbreviations – A = TbMetRS inhib; B = UUG fidelity; C = Rce1 inh; D = DSG3 Ab inh; E = Arrestin-AP2 inh; F = Arr-AP2 CP1; G = GST GSH counter
> COC1c2ccccc2C(=O)N1Cc1ccc(F)cc1 (stereo not given)
  A = -0.2 | B = -4.3 | C = i | D = 104.0 | E = 61.3* | F = 8.4 | G = -10.5

> COc1ccc(NC(=O)Nc2cccc3c2O[C@H](CN(C)C(=O)Nc2ccccc2)[C@H](C)CN([C@H](C)CO)C3=O)cc1
  A = · | B = 13.0 | C = · | D = · | E = · | F = · | G = ·

> CC(C)c1ccc(OCc2ccc(C(=O)N3CCN(c4ccccn4)CC3)cc2)cc1
  A = -0.9 | B = 2.2 | C = i | D = 107.7 | E = 56.1* | F = 11.4 | G = -6.8

> CC(C)c1ccc(COc2ccc(C(=O)N3CCOCC3)cc2)cc1
  A = -0.5 | B = · | C = i | D = 100.8 | E = -1.8 | F = · | G = ·

> Cc1ccc(C)c(NC(=O)COC(=O)c2cc3ccccc3oc2=O)c1
  A = -0.3 | B = -24.1 | C = · | D = 106.4 | E = 65.6* | F = 1.7 | G = 4.8

> CCN(CC)S(=O)(=O)c1ccc2c(c1)nc(CCC(=O)Nc1cccc(C(F)(F)F)c1)n2CC
  A = 0.8 | B = -17.2 | C = i | D = 99.2 | E = 85.0* | F = 1.2 | G = 1.9

> COc1ccc(S(=O)(=O)Nc2ccc3c(c2)C(=O)N([C@H](C)CO)C[C@@H](C)[C@@H](CN(C)C(=O)Nc2ccc(C(F)(F)F)cc2)O3)cc1
  A = · | B = -2.0 | C = · | D = · | E = · | F = · | G = ·

> O=C(CN1CCOCC1)Nc1ccc(Cl)cn1
  A = -0.4 | B = -3.8 | C = i | D = 110.0 | E = 54.2* | F = 9.9 | G = 7.7

> Cc1cc(C)n2[nH]c(=O)c(N=Nc3cccc(Cl)c3)c2n1
  A = -0.1 | B = -9.3 | C = i | D = 94.2 | E = 90.4* | F = 1.7 | G = -5.2

> C[C@H](CO)N1C[C@H](C)[C@H](CN(C)CC2CCCCC2)OCCCC[C@H](C)Oc2ccc(NC(=O)Nc3ccc4c(c3)OCO4)cc2C1=O
  A = · | B = 0.5 | C = · | D = · | E = · | F = · | G = ·

> COc1cc2c(cc1NC(=O)CN(C)Cc1cccc(OC)c1OC)oc1ccccc12
  A = -0.3 | B = · | C = i | D = 94.2 | E = -7.0 | F = -1.5 | G = 1.0

> COc1cc2c(cc1NC(=O)COc1ccc3ccccc3c1)oc1ccccc12
  A = -0.3 | B = -10.8 | C = i | D = 98.4 | E = -1.9 | F = · | G = ·

> COc1cccc(CN(C)CC(=O)Nc2cc3oc4ccccc4c3cc2OC)c1
  A = 0.7 | B = · | C = i | D = 108.6 | E = 2.6 | F = 0.6 | G = -0.4

> COc1cc(C)c(S(=O)(=O)N2CCCC2)cc1C(C)C
  A = -1.0 | B = · | C = i | D = 95.7 | E = 57.2* | F = -4.9 | G = 2.3

> O=C(Cc1ccccc1[N+](=O)[O-])N1CCOCC1
  A = -0.7 | B = -20.0 | C = i | D = 98.2 | E = 30.3 | F = · | G = ·

Abbreviations – A = TbMetRS inhib; B = UUG fidelity; C = Rce1 inh; D = DSG3 Ab inh; E = Arrestin-AP2 inh; F = Arr-AP2 CP1; G = GST GSH counter
> O=C(Cc1ccccc1[N+](=O)[O-])N1CCN(c2ccccc2F)CC1
  A = -0.2 | B = · | C = i | D = 102.6 | E = 60.8* | F = 1.3 | G = 4.5

> CCOc1cc(NC(=O)C2CC2)c(OCC)cc1NC(=O)c1ccccc1OCC
  A = -0.3 | B = -6.6 | C = · | D = 87.7 | E = -5.7 | F = · | G = ·

> CCOC(=O)C1CCN(c2cc3c(cc2NC(=O)c2ccccc2F)n(C)c(=O)n3C)CC1
  A = -1.1 | B = -38.0 | C = i | D = 104.6 | E = 34.5 | F = -9.9 | G = 5.5

> CCOC(=O)C1CCN(c2cc3c(cc2NC(=O)c2ccc(F)cc2)n(C)c(=O)n3C)CC1
  A = -0.7 | B = -6.6 | C = i | D = 107.6 | E = 36.1 | F = -8.6 | G = -4.6

> CCOC(=O)C1CCN(c2cc3c(cc2NC(=O)c2ccccc2OCC)n(C)c(=O)n3C)CC1
  A = 0.4 | B = -21.6 | C = i | D = 100.1 | E = 10.3 | F = 6.1 | G = -3.6

> CCOC(=O)C1CCN(c2cc3c(cc2NC(=O)c2ccccc2Cl)n(C)c(=O)n3C)CC1
  A = -0.2 | B = -6.2 | C = i | D = 106.8 | E = -6.4 | F = -4.1 | G = 1.1

> O=C(Nc1ccc2c(c1)[C@@H]1C[C@@H](CC(=O)N3CCc4ccccc4C3)O[C@@H](CO)[C@@H]1O2)NC1CCCC1
  A = · | B = 0.8 | C = · | D = · | E = · | F = · | G = ·

> O=C(CC(F)(F)F)N1C[C@@H]2[C@H](c3ccccc31)[C@@H](CO)N2C(=O)C1CC1
  A = · | B = 35.8 | C = · | D = · | E = · | F = · | G = ·

> CCOC(=O)c1c(NC(C)=O)sc2c(OC)c(Br)ccc12
  A = -0.1 | B = -17.8 | C = i | D = 101.0 | E = 7.5 | F = · | G = ·

> CCOC(=O)c1c(NC(C)=O)sc2c(O)c(CN3CCN(CC)CC3)ccc12
  A = 0.0 | B = 4.1 | C = i | D = 100.7 | E = 63.8* | F = 14.5 | G = 1.6

> CCOC(=O)C1=C(COC(=O)COc2ccccc2OCC)NC(=O)NC1C (stereo not given)
  A = -0.2 | B = -1.7 | C = i | D = 102.0 | E = -3.7 | F = -0.8 | G = -10.9

> CCOC(=O)C1=C(COC(=O)COc2ccc(OCC)cc2)NC(=O)NC1C (stereo not given)
  A = -0.6 | B = · | C = i | D = 95.3 | E = 15.6 | F = -7.7 | G = -7.3

> CCOC(=O)C1=C(COC(=O)COc2ccccc2C=O)NC(=O)NC1C (stereo not given)
  A = -0.2 | B = · | C = · | D = · | E = 10.2 | F = · | G = ·

> CCOC(=O)C1=C(COC(=O)COc2cccc(C)c2C)NC(=O)NC1C (stereo not given)
  A = 0.0 | B = 1.4 | C = · | D = 90.5 | E = -10.5 | F = 0.2 | G = 3.2

Compounds from the list above that contain a CF3 group:
Abbreviations – A = TbMetRS inhib; B = UUG fidelity; C = Rce1 inh; D = DSG3 Ab inh; E = Arrestin-AP2 inh; F = Arr-AP2 CP1; G = GST GSH counter
> CCN(CC)S(=O)(=O)c1ccc2c(c1)nc(CCC(=O)Nc1cccc(C(F)(F)F)c1)n2CC
  A = 0.8 | B = -17.2 | C = i | D = 99.2 | E = 85.0* | F = 1.2 | G = 1.9

> COc1ccc(S(=O)(=O)Nc2ccc3c(c2)C(=O)N([C@H](C)CO)C[C@@H](C)[C@@H](CN(C)C(=O)Nc2ccc(C(F)(F)F)cc2)O3)cc1
  A = · | B = -2.0 | C = · | D = · | E = · | F = · | G = ·

> O=C(CC(F)(F)F)N1C[C@@H]2[C@H](c3ccccc31)[C@@H](CO)N2C(=O)C1CC1
  A = · | B = 35.8 | C = · | D = · | E = · | F = · | G = ·
